Experimental data from publication PMC6008491, “Discovery of a novel allosteric inhibitor scaffold for polyadenosine-diphosphate-ribose polymerase 14 (PARP14) macrodomain 2” (Bioorganic & Medicinal Chemistry, 2018).

By UniProt entry, the sequences of proteins in these tests, tags left out. Residues count along the entry.
UniProt Q460N5, 791-978 limits assumed: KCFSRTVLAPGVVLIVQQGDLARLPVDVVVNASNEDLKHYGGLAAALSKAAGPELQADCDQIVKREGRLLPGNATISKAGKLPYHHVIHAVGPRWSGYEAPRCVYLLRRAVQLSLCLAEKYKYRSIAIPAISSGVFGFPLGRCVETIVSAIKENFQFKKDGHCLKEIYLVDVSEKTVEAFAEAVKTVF
UniProt Q460N5, 1003-1190 limits assumed: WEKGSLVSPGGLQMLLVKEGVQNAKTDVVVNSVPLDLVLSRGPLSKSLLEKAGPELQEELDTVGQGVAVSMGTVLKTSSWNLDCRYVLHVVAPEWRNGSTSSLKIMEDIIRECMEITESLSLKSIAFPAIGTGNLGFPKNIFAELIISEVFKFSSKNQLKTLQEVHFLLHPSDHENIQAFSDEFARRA
UniProt Q460N5, 1216-1387 limits assumed: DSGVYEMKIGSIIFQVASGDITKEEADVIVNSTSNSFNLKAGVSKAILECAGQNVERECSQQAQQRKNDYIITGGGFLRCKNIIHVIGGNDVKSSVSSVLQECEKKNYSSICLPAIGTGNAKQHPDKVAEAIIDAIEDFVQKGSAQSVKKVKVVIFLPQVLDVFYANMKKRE

What was measured:
Test in all cases: ITC of macrodomain:ADP-ribose peptide binding
[1] = biological target: PARP14 MD1 (Homo sapiens, UniProt Q460N5); settings: read-out: PARP14 MD1/ADP-ribose peptide KD
[2] = biological target: PARP14 MD2 (Homo sapiens, UniProt Q460N5); settings: read-out: PARP14 MD2/ADP-ribose peptide KD
[3] = biological target: PARP14 MD3 (Homo sapiens, UniProt Q460N5); settings: read-out: PARP14 MD3/ADP-ribose peptide KD

Kd [1]: 137 µM | Kd [2]: 6.8 µM | Kd [3]: 15 µM
Structure (SMILES): Nc1ncnc2c1ncn2[C@@H]1O[C@H](COP(=O)(O)OP(=O)(O)OC[C@H]2OC(O)[C@H](O)[C@@H]2O)[C@@H](O)[C@H]1O (stereo partly drawn)
